SMILES strings stand for the structures. The list shows a part of the results, in another mix than the full data. Results filed as inconclusive are left out. Some structures show a salt or complex split into parts, the way the source records it. The source made the active and inactive calls. Calls come from the whole dose curve; as a rule, active = well fitted cell-killing curve with a large enough effect; inconclusive = small, poorly fitted or top-dose-only effect, or effect the other way; inactive = flat fitted curve, though single readings scatter.

The results in this text go back to PubChem BioAssay AID1347076 (National Center for Advancing Translational Sciences (NCATS), 2019).
% is set by controls: 0 for no effect and ±100 for the full control effect.

A short description of this test: qHTS assay for MDR1-selective chemotherapeutics: Primary screen using the drug-selected MDR subline cells KB-V1. Note: nearly all actives have a fitted effect of over 60% in size. The following applies: KB-V1 MDR cells viability, CellTiter-Glo, 72 h; at 46.1 µM (top of the series). From the text:
A prime difficulty in effectively treating cancer is the development of cellular resistance to multiple structurally unrelated anticancer drugs, a phenomenon known as multidrug resistance (MDR). […] Numerous strategies to overcome P-gp-mediated MDR have been explored, including the design of drugs that evade recognition and efflux, and development of inhibitors to block efflux and restore drug accumulation. […] An alternative approach is to exploit resistance by identifying drugs that target MDR cells over the non-resistant parental cells from which they were selected. […] The development of MDR1-selective agents represents a new strategy for resolving multidrug resistance, as it remains a long-standing clinical challenge for cancer chemotherapy.
Our goal is to identify compounds that selectively kill P-gp-expressing MDR cells. We will identify MDR1-selective compounds by comparing toxicity of compounds in the screening library against parental, drug-naive (KB-3-1) adenocarcinoma cells as well as their drug-selected MDR sub-line (KB-V1). The differential toxicity of compounds against these two cell lines will be used to identify MDR1-selective compounds, whose cytotoxicity is potentiated, rather than diminished, by P-gp expression. This assay will be utilized to conduct a quantitative high-throughput screen (qHTS) in collaboration with the NIH Chemical Genomics Center to identify selective agents, and probe hits arising from the screen will be validated using secondary assays and characterized through a well-established follow-up research program. This screen was run against the entire NCGC library collection of about 400,000 compounds.
NIH Molecular Libraries Probe Production Network [MLPCN]
NIH Chemical Genomics Center [NCGC]
PI: Michael Gottesman, National Cancer Institute, NIH
Briefly, 5 microL of media containing either KB-V1 cells (columns 1-2, 4-48) are dispensed into Greiner white, treated solid-bottom 1536-well assay plates (media-only control is added to column 3). Compounds are then transferred via Kalypsys pin tool equipped with 1536-pin array (10 nL slotted pins, V&P Scientific, San Diego, CA). Following addition of compound, the plates are incubated at 37 degrees C for 72 hours. CellTiter-Glo (2.5 µL/well) is then added, and the plates are read in a ViewLux reader (Perkin-Elmer, clear luminescence filter, 1 second exposure, 1x binning) following a 10 minute incubation. All cells are dispensed in DMEM phenol-red free media containing 10% FBS.
Library plates were screened starting from the lowest and proceeding to the highest concentration. Vehicle-only plates, with DMSO being pin-transferred to columns 5-48, will be inserted uniformly at the beginning and the end of each library in order to monitor and record any shifts in the background, which can be affected by reagent dispensers or loss in enzyme activity over time. Screening data will be corrected, normalized, and concentration-effect relationships will be derived by using publicly-available NCGC, NCATS curve fitting algorithms (http://ncgc.nih.gov/pub/openhts).
As for `O=[N+]([O-])c1cc([N+](=O)[O-])c(NCC2CCS(=O)(=O)C2)c([N+](=O)[O-])c1` (configuration not stated), the activity change, negative = cytotoxicity is inactive: -4.74%.
The figure for `CN1CCN(CCOC(=O)C(O)(c2ccccc2)c2ccccc2)CC1` is inactive: -11.6%; for `COc1ccc(NC2CCN(C(=O)OC(C)(C)C)CC2)cc1` it is inactive: 2.45%.
Consider `CCCCn1nnnc1C(c1cccc2ccccc12)N1CCC(n2c(=O)[nH]c3ccccc32)CC1` (configuration not stated), for which the activity change, negative = cytotoxicity is inactive: -6.29%.
In the case of `COc1cc(C(=O)NCC2(N3CCCCC3)CCCCC2)ccc1OC(F)F`, the activity change, negative = cytotoxicity is inactive: -21.9%.
The figure for `O=C(NCC1(N2CCOCC2)CCCCC1)c1cc(=O)[nH]c2ccccc12` is inactive: -4.35%.
The same measure for `COc1ccc(CN(CCCl)CCCl)cc1Cl`: inactive: 0%; for `O=[N+]([O-])c1cc([N+](=O)[O-])c(OC2CCCCC2O)c([N+](=O)[O-])c1` (configuration not stated): inactive: 22.6%.
The figure for `CN(C)c1cccc(C(=O)NCC2(N3CCCCC3)CCCCC2)c1` is inactive: 6.29%; for `CCCCn1nnnc1C(c1ccnc2ccccc12)N1CCC(n2c(=O)[nH]c3ccccc32)CC1` (configuration not stated) it is inactive: -5.77%.
For the compound `COc1cc(OC)c(C(=O)NCC2(N(C)C)CCCCC2)cc1OC`, the activity change, negative = cytotoxicity was inactive: 3.82%.
The same measure for `O=C(NCC1(N2CCOCC2)CCCCC1)c1cc(F)c(F)cc1Cl`: inactive: 0%.
In the case of `CCC(c1nnnn1C(C)(C)C)N1CCC(n2c(=O)[nH]c3ccccc32)CC1` (configuration not stated), the activity change, negative = cytotoxicity is inactive: -1.61%.
The figure for `CCN(CC)CCCNc1ccccc1[N+](=O)[O-].O=[N+]([O-])c1cc([N+](=O)[O-])c(O)c([N+](=O)[O-])c1` is inactive: -5.62%.
The figure for `CN1CCC(Nc2cccc(F)c2)CC1` is inactive: -15.7%; for `COc1ccc2c(c1O)-c1c(O)c(OC)cc3c1[C@H](C2)[N+](C)(C)CC3.O=[N+]([O-])c1cc([N+](=O)[O-])c([O-])c([N+](=O)[O-])c1[O-]` it is inactive: -10.8%.
The same measure for `O=C(OC1CN2CCC1CC2)c1ccc([N+](=O)[O-])cc1` (configuration not stated): inactive: -0.288%; for `Cc1ccc(C(=O)NCC2(N(C)C)CCCCC2)o1`: inactive: -29.6%.
Regarding `CCCOc1ccc(C(=O)NCC2(N(C)C)CCCCC2)cc1OC`, the activity change, negative = cytotoxicity is inactive: 14.9%.
Take `COc1ccc(C(c2nnnn2C2CCCC2)N2CCC(n3c(=O)[nH]c4ccccc43)CC2)cc1` (configuration not stated): the activity change, negative = cytotoxicity is inactive: -19.8%.
The same measure for `O=C(NCC1(N2CCCCC2)CCCCC1)c1cccs1`: inactive: -13.5%; for `CCCCn1nnnc1C(CC)N1CCC(n2c(=O)[nH]c3ccccc32)CC1` (configuration not stated): inactive: 11.5%; for `COc1ccc(C(=O)NCC2(N3CCCCC3)CCCCC2)cc1`: inactive: -25.3%.
As for `CC(C)(C)OC(=O)N1CCC(N(C(=O)c2ccccc2)c2ccc(F)cc2)CC1`, the activity change, negative = cytotoxicity was inactive: 28.1%.
The same measure for `COc1ccc(C(=O)NCC2(N3CCCCC3)CCCCC2)c(OC)c1OC`: inactive: -17.7%; for `CCC(c1nnnn1C1CCCC1)N1CCC(n2c(=O)[nH]c3ccccc32)CC1` (configuration not stated): inactive: 5.77%.
The same measure for `CSc1ccccc1C(=O)NCC1(N2CCCCC2)CCCCC1`: inactive: -0.147%; for `O=C(NCC1(N2CCOCC2)CCCCC1)c1cc2ccccc2o1`: inactive: -6.24%; for `O=C(NCC1(N2CCCCC2)CCCCC1)c1ccc(Cl)nc1`: inactive: -10.9%.
On to `Cc1cc(C)cc(N(C(=O)c2ccccc2)C2CCN(C(=O)OC(C)(C)C)CC2)c1`, for which the activity change, negative = cytotoxicity is inactive: -0.263%.
The same measure for `CCOC(=O)N1CCC(Nc2ccc(OC)cc2)CC1`: inactive: -6.55%.
As for `CCCCn1nnnc1C(c1ccc(OC)cc1)N1CCC(n2c(=O)[nH]c3ccccc32)CC1` (configuration not stated), the activity change, negative = cytotoxicity is inactive: -1.03%.
On to `O=C(NCC1(N2CCCCC2)CCCCC1)c1ccc(Cl)s1`, for which the activity change, negative = cytotoxicity is inactive: -21.4%.
Consider `N#CC1(Nc2ccccc2)CCN(Cc2ccccc2)CC1`, for which the activity change, negative = cytotoxicity was inactive: 10%.
`O=C1C(O)=C([N+](=O)[O-])C(=O)C(O)=C1[N+](=O)[O-]`: the activity change, negative = cytotoxicity was inactive: 7.88%.
The figure for `CCOc1ccc(C)cc1CN(CCCl)CCCl` is inactive: 6.92%; for `O=C(NCC1(N2CCOCC2)CCCCC1)c1ccc(Cl)cc1` it is inactive: -29.3%; for `CC(C)(C)n1nnnc1C(c1ccccc1)N1CCC(n2c(=O)[nH]c3ccccc32)CC1` (configuration not stated) it is inactive: 11.9%.
In the case of `O=C1CCN(Cc2ccccc2)CC1`, the activity change, negative = cytotoxicity was inactive: 15.2%.
The same measure for `O=P1(N(CCCl)CCCl)SCCCS1`: inactive: 14.3%; for `CCCCOc1ccc(C(=O)NCC2(N3CCOCC3)CCCCC2)cc1`: inactive: 4.5%.
For `O=C(NCC1(N2CCCCC2)CCCCC1)c1ccc(F)cc1`, the activity change, negative = cytotoxicity is inactive: 11.3%.
The figure for `COc1ccc(NC2CCN(CCc3ccccc3)CC2)c(OC)c1` is inactive: -9.23%; for `CCOC(=O)N1CCC(Nc2ccc(F)cc2)CC1` it is inactive: -4.82%.
On to `O=c1[nH]c2ccccc2n1C1CCN(C(c2ccccc2)c2nnnn2C2CCCCC2)CC1` (configuration not stated), for which the activity change, negative = cytotoxicity was inactive: -15.2%.
The figure for `CCOC(=O)N1CCC(Nc2cccc(C)c2)CC1` is inactive: 3.01%.
The figure for `COc1cc(C(=O)NCC2(N(C)C)CCCCC2)ccc1OC(F)F` is inactive: 0%.
